## Apparent affinities of Ab-14 variants for a coronavirus HR2 peptide

The measurements come from Engelhart et al. 2022 (doi:10.1038/s41597-022-01779-4) through the FLAb antibody collection.

All variants were tested on one target, the spike HR2 peptide PDVDLGDISGINAS (SARS-CoV-2).

Ab-14 is the parent antibody, in scFv form: VH, then a (GGGGS)3 linker, then VL. The light chain is unchanged in all variants.
VH: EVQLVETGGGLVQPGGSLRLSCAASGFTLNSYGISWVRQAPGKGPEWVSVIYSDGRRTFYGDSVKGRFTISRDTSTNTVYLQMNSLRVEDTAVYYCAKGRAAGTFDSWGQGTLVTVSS
VL: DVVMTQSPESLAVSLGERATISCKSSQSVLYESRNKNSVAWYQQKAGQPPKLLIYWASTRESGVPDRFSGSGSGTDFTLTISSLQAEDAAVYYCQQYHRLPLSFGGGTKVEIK

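The starting antibody came from a phage panning campaign against this peptide. Variants in AAYL49 differ from the parent at up to three CDR positions; double and triple changes were sampled at random. AlphaSeq pools MATa yeast showing the antibodies with MATalpha yeast showing the peptide. After mating in shaken culture at 30 °C for 16 h, diploids were selected and their barcode pairs sequenced. A regression on co-assayed BCL2-family reference pairs converts the normalised counts of each replicate to an apparent Kd. Mating was done three times.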

Variants are written as CDR1, CDR2 and CDR3 of the heavy chain (limits as in the source). Parent: GFTLNSYGIS, VIYSDGRRTFYGDSVK, GRAAGTFDS. Scale: log10 of Kd in nM, estimated from mating counts; low values are strong binders. A mean of the replicates is given; it leaves out those without a signal. "nd" marks a missing value. The strain was present, yet no cells mated with the target were sequenced in any replicate, which points to weak or no binding.

mean log10 Kd (nM)	replicates with signal	CDR-H1	CDR-H2	CDR-H3
4.69	2 of 3	GFTLNNYGIS	VIYSDGRRTFYGDSVK	GRADGTFVS
4.46	2 of 3	GFTLNSYGIS	VIYMWGRRTFHGDSVK	GRAAGTFDS
1.69	3 of 3	GFTLNSYGIS	VIFSDGRRTFYGDSVK	GRAAGTFTD
4.53	1 of 3	GFNLNSYGIS	VIYSDGRRTFYEDSVK	GRAMGTFDS
nd	0 of 3	GFTLWSYGIS	VIYSRGRRTFYGDSVK	HRAAGTFDS
2.74	1 of 3	GFTLNTYGIS	VIYSDGRRSFYGDSVK	GRAAGHFDS
5.12	3 of 3	GFTLDSYGWS	VIYSPGRRTFYGDSVK	GRAAGTFDS
3.17	3 of 3	GFTLNSYGIS	VIYSDGWRTFYGDSVK	GDAAGTRDS
nd	0 of 3	GFTRNSYGIS	VIYSDGRRTFYGDSVK	GRAPGTFDS
4.80	3 of 3	GFTLNSYGIS	DIASDGRRTHYGDSVK	GRAAGTFDS
nd	0 of 3	GFTLNSYGIS	VIYSWGRSQFYGDSVK	GRAAGTFDS
nd	0 of 3	GFTLRSYGIS	VIYSDIRRTFYGDSVK	GRACGTFDS
nd	0 of 3	GFTLNMYGIS	VIYSDGRRTFLGDWVK	GRAAGTFDS
4.69	2 of 3	GFTLNSYGIS	VIYSDGRRTFHGHSVK	GRAAGTFTS
nd	0 of 3	GFTLNGYGIS	RIYSDGRRTFYGDVVK	GRAAGTFDS
nd	0 of 3	GFTLNSVGIS	VCYSDGRRTFYGDSVK	GRAAITFDS
nd	0 of 3	GFTLNSYGIS	VIYLDGRRTFYGDSVV	GRAAGTFDR
0.76	3 of 3	GFTLNSYGIS	VIYSDGRRTFYIDSVK	GRAAGTFSS
nd	0 of 3	GFTLNTYGIS	VIYSIGRRTQYGDSVK	GRAAGTFDS
nd	0 of 3	GFTLNSYGIS	VIYADSWRTFYGDSVK	GRAAGTFDS
nd	0 of 3	GFTLNSYGII	VIFSDGRRTLYGDSVK	GRAAGTFDS
3.72	2 of 3	GFELNSYGIS	VIYSDGERTFYGDSQK	GRAAGTFDS
4.94	1 of 3	GNTLNSYGIS	VIYSDGRRTFYGDFVK	GIAAGTFDS
3.15	3 of 3	GFTLPSYGIS	VIYSDGRRTFYGDSVL	SRAAGTFDS
nd	0 of 3	GFTLNSYGIS	VIYSKGRRTFYGDSVY	GRAAGTFDS
nd	0 of 3	GFTLNSYGIS	VIYSDGRRTFYGDSVK	GRAIGTFSS
nd	0 of 3	GFTLNSYGIS	VEYSDGRRTFYGDSVK	GRAAGTFRL
2.96	3 of 3	GRTLNSYGIS	VIYSDGRRTFYGDSVK	GRAHGTADS
nd	0 of 3	GFTLNSYGIS	VIQSDGRPTFYGMSVK	GRAAGTFDS
nd	0 of 3	DFTLNSYGIS	VIYPDCRRTFYGDSVK	GRAAGTFDS
3.69	1 of 3	GFTLNSYGIS	RIYSDERRTFYWDSVK	GRAAGTFDS
4.57	2 of 3	GRTLNSYGIS	VICRDGRRTFYGDSVK	GRAAGTFDS
4.40	2 of 3	GFTLNSYGIS	VIYGDGRRTFPGDSVA	GRAAGTFDS
3.60	1 of 3	GFTLNSYGIS	VIYSDQRRTHYGDSVK	GRAAGTFDS
nd	0 of 3	GMTLNSYGIS	EIYSDGRPTFYGDSVK	GRAAGTFDS
nd	0 of 3	GFTLRSYGIS	VYYSEGRRTFYGDSVK	GRAAGTFDS
4.05	2 of 3	GFTLNSYGES	VIYSDGRRTFYNESVK	GRAAGTFDS
4.45	2 of 3	GFTLNSMGIS	VIYSDGRRTFYGDSVK	GRAAGTFVS
4.56	1 of 3	GFTLNSYGSG	VIYSDGRRTFYGYSVK	GRAAGTFDS
3.01	1 of 3	GFSLPSYGIS	VIYSDGRRTFYGDSVK	GRAAGNFDS
nd	0 of 3	QFTLNSYGIS	VIYSDGRRTFYGDSVK	GRDATTFDS
3.58	1 of 3	GFTLNSYGIS	VDYSDGRRTFYGDSVK	GRAAGTFDC
nd	0 of 3	GLTLNSYGIS	VINSDGRRTFYGDPVK	GRAAGTFDS
nd	0 of 3	GFPLNSYGIS	VIYSDGRRDFYGDSVK	GRAAGMFDS
nd	0 of 3	GFTINSYGFS	VIYSDGRRTFYGDSVK	GRYAGTFDS
4.47	1 of 3	GFTLNSYGIS	VIYSDGRRTFYGDCVK	GRQAGQFDS
3.73	2 of 3	GFRLNCYGIS	VIYSDGRRDFYGDSVK	GRAAGTFDS
1.47	3 of 3	GFTLNSYGIS	VIYSDGRRTFYGDSVK	LRAAGCFDS
3.57	2 of 3	GFTLNNYGIS	VIYSDGRRTFYGDSVK	GRAAGGFDS
nd	0 of 3	GFTLVSYGIS	VIESDGRRTFYGDPVK	GRAAGTFDS
nd	0 of 3	GFTLNSYGIS	VIVSDGRRTSYGDSWK	GRAAGTFDS
nd	0 of 3	GFTNNSYGIS	QIYSDGRRTFYGDSVK	GRAAGIFDS
nd	0 of 3	GFTLNSCGIS	VIYSDGRRTFYGKSVK	GRAAGTFDI
3.82	1 of 3	GFTLNSYGSS	VIYSDGRRCFYGDSVK	GRGAGTFDS
nd	0 of 3	GFTLNSYGIS	VIPSDGRRTLYGDSVK	GRAKGTFDS
nd	0 of 3	GFFLNSYGSS	VIYSDGRRTFRGDSVK	GRAAGTFDS
nd	0 of 3	GFTLNSLGIS	VGYSDGRRTFYGDTVK	GRAAGTFDS
nd	0 of 3	GFTLNSYGIS	VIYSDGRRMFYGDSVK	GRAAGTFKV
nd	0 of 3	GFHLNSYGIS	VIYSDWRRPFYGDSVK	GRAAGTFDS
3.31	1 of 3	GFTLQSYGIS	VIYSDGQRTFMGDSVK	GRAAGTFDS
2.58	3 of 3	GFTLNSYGIS	VIYSDGRRTFYGFSVK	GWAAGTFDS
nd	0 of 3	GFTLNSYPIS	VIYSDGRRTFYWDSKK	GRAAGTFDS
nd	0 of 3	GFTLNSYGIS	VIYSDGRRTTYGRSVK	GRAAETFDS

Again, the first 8 entries without any signal:

CDR-H1	CDR-H2	CDR-H3	mean log10 Kd (nM)	replicates with signal
GFTLWSYGIS	VIYSRGRRTFYGDSVK	HRAAGTFDS	nd	0 of 3
GFTRNSYGIS	VIYSDGRRTFYGDSVK	GRAPGTFDS	nd	0 of 3
GFTLNSYGIS	VIYSWGRSQFYGDSVK	GRAAGTFDS	nd	0 of 3
GFTLRSYGIS	VIYSDIRRTFYGDSVK	GRACGTFDS	nd	0 of 3
GFTLNMYGIS	VIYSDGRRTFLGDWVK	GRAAGTFDS	nd	0 of 3
GFTLNGYGIS	RIYSDGRRTFYGDVVK	GRAAGTFDS	nd	0 of 3
GFTLNSVGIS	VCYSDGRRTFYGDSVK	GRAAITFDS	nd	0 of 3
GFTLNSYGIS	VIYLDGRRTFYGDSVV	GRAAGTFDR	nd	0 of 3

In this assay the parent's reference entry averaged 0.65; its copy inside this library read 4.11 (one replicate of three). Three control strains display no target. For library AAYL49, 15% of the pairings with them gave a signal, with a median of 4.06 and one signal in twenty below 2.83, so weak values seen in few replicates may be background.